From PubChem BioAssay (NCATS)
This is a selection; strong and weak results do not stand in their true shares. Records with an inconclusive call do not appear. The source made the active and inactive calls. Unless noted, calls come from the whole dose curve; as a rule, active = well fitted curve in the direction sought with a large enough effect; inconclusive = small, poorly fitted or top-dose-only effect, or another doubt; inactive = no such curve, though single readings can be large; an effect the other way counts as inactive or inconclusive.

Chains of the proteins cited; added tags and fusions are not shown. Lines headed by an entry give the natural chain unless they say otherwise; changes in a name come on top.
UniProt P15289: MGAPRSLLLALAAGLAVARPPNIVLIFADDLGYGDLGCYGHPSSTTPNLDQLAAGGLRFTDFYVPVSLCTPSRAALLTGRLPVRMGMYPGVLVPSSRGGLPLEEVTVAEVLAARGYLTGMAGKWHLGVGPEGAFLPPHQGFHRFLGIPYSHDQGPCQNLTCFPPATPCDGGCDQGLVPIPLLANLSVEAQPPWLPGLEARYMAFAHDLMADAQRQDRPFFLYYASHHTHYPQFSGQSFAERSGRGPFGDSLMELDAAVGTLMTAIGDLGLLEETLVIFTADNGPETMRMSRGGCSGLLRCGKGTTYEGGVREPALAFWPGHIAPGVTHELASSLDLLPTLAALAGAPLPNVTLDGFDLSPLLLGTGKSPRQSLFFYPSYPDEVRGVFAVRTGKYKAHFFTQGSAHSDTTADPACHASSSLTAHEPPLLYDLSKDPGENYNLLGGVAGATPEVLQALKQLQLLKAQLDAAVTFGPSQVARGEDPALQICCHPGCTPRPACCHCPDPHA
UniProt P35557, whole entry, looked up: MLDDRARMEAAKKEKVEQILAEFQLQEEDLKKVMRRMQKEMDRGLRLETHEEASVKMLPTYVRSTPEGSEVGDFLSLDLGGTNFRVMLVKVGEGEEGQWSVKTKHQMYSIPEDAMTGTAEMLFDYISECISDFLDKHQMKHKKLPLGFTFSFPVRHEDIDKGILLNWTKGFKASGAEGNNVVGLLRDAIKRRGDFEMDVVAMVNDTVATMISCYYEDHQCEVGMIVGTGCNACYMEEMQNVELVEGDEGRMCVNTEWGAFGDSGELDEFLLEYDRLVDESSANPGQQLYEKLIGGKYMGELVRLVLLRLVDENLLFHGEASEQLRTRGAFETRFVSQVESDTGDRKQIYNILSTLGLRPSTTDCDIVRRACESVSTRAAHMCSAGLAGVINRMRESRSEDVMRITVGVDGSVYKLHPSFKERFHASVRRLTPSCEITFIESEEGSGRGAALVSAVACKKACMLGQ
UniProt Q14397: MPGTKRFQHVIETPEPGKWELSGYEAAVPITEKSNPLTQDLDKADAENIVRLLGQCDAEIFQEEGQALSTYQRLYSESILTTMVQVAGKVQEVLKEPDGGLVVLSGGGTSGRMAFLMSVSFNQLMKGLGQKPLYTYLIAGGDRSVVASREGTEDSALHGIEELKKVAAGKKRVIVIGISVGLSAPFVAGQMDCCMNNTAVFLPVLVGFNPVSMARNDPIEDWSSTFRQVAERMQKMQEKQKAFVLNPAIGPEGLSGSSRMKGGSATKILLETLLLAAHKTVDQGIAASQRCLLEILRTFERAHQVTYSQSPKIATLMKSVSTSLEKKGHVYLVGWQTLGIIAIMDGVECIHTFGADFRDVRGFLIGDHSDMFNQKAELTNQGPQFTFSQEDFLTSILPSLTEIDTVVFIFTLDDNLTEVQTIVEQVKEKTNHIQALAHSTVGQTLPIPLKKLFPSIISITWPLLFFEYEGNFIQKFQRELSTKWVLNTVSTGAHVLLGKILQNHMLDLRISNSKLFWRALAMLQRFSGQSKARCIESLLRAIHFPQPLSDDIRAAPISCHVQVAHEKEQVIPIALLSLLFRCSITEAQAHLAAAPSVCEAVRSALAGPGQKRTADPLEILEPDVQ
UniProt P16066: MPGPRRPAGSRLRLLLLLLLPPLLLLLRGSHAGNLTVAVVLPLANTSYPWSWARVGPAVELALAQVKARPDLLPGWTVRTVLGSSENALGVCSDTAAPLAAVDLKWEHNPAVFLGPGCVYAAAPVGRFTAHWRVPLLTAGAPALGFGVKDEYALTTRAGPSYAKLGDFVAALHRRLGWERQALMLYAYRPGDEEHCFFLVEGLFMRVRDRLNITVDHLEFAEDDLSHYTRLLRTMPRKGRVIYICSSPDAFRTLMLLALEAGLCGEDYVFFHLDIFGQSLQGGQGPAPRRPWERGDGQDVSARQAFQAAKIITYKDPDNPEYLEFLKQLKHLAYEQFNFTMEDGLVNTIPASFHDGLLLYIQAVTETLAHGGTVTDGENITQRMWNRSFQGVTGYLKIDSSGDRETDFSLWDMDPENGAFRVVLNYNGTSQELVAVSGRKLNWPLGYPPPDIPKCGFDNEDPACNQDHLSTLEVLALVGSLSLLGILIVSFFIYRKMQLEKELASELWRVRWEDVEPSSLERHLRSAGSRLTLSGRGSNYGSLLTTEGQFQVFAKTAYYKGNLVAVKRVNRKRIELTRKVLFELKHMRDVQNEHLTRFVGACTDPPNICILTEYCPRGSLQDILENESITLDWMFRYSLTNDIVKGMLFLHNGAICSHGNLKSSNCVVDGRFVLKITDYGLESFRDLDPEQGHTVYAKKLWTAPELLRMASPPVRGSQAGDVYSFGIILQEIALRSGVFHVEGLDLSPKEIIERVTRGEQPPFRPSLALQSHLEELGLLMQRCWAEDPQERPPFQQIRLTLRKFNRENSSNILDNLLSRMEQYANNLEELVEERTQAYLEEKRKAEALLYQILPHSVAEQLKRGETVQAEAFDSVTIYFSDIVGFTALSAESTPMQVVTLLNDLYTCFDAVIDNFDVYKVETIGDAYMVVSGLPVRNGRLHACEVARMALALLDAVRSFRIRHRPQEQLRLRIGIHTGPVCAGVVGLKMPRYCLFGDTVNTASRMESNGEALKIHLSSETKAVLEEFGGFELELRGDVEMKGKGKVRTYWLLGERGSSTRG
UniProt P20594: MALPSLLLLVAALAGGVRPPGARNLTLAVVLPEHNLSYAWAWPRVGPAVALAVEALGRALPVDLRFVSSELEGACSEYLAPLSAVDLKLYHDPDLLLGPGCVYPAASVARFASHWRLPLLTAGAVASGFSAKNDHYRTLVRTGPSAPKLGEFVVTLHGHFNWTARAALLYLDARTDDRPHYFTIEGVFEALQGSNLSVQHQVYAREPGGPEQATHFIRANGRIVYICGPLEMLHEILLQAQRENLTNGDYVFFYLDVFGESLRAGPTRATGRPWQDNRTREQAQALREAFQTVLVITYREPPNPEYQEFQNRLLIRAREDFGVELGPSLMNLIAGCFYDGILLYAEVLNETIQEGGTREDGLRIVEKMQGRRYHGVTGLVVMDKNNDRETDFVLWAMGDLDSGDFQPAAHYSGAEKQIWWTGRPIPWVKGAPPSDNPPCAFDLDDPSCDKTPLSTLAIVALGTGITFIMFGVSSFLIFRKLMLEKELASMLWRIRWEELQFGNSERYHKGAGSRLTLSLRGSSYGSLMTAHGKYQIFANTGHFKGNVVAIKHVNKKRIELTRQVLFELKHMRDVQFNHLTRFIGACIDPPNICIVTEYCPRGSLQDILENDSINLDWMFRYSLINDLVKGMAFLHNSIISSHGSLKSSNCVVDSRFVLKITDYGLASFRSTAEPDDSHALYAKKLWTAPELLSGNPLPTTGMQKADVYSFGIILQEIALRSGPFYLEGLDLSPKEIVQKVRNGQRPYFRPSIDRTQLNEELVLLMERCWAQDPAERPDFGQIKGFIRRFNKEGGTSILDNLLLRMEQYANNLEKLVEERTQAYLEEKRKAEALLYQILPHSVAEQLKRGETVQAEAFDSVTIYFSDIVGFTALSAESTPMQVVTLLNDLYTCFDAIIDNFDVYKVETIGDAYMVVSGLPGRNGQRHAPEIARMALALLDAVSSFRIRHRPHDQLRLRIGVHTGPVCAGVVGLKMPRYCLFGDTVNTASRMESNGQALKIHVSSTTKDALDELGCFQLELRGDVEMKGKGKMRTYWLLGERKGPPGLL
UniProt Q03431: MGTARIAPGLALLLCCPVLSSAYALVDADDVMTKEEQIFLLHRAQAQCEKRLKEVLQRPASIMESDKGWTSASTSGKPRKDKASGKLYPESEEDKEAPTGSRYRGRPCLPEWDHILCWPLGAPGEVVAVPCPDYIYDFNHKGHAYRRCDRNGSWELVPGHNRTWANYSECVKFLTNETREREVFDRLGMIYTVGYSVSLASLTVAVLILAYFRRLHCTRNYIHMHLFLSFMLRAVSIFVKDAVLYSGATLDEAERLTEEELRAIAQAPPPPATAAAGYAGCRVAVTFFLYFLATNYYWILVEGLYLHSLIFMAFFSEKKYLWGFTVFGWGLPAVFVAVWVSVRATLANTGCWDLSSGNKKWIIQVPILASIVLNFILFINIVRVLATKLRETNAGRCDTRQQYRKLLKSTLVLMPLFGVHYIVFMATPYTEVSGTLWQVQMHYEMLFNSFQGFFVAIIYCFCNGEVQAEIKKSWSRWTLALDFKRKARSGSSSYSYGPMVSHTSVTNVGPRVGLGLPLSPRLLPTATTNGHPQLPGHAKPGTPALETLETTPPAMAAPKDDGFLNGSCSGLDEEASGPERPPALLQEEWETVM
UniProt Q9UGL1: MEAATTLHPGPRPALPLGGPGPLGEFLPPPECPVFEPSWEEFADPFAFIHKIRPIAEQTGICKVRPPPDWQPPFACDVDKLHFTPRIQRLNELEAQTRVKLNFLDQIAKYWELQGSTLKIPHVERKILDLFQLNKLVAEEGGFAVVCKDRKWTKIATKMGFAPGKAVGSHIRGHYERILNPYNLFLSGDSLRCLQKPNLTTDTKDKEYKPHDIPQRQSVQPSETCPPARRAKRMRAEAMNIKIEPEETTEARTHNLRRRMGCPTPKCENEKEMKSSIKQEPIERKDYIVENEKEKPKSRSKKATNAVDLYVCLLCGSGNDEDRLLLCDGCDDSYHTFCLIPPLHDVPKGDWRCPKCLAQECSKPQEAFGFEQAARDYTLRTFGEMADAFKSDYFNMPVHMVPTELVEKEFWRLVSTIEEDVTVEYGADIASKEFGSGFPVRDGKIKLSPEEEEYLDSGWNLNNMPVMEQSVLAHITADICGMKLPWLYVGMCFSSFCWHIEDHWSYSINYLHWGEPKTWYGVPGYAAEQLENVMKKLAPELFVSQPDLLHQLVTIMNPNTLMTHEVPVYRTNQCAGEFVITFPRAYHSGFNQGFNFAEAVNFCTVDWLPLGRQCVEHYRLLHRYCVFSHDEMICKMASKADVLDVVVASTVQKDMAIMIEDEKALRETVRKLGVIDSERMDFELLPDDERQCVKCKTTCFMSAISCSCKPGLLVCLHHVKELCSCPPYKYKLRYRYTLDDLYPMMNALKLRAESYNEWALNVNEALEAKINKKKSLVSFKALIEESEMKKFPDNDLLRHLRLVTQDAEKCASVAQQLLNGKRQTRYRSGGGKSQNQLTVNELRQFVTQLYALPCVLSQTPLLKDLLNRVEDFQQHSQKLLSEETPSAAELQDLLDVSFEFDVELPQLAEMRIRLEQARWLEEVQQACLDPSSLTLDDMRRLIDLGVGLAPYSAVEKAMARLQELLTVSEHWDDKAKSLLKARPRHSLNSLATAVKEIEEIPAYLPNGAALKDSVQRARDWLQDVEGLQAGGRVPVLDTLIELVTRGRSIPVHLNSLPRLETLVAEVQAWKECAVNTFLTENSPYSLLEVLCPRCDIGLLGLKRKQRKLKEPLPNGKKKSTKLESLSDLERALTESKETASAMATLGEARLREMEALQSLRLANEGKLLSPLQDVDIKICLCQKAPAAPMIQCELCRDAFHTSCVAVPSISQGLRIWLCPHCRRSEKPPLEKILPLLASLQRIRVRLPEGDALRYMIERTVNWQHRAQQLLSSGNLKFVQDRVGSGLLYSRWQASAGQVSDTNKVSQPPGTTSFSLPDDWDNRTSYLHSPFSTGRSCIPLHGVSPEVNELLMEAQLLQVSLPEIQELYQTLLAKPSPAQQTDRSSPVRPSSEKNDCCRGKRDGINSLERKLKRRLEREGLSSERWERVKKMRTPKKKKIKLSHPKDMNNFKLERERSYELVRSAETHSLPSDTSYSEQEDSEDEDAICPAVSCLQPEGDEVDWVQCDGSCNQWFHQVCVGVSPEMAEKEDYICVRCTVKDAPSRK
UniProt Q9GZX7: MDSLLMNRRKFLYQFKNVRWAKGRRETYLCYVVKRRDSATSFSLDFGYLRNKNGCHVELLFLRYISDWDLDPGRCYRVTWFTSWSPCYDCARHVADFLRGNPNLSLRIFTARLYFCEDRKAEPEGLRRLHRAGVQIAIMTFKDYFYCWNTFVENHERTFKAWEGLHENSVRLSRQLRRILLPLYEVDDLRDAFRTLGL

Experiments:
[1] = biological target: Arylsulfatase A (Homo sapiens) (UniProt P15289); experiment: qHTS screen for enhancers of Arylsulfatase A (ASA1): LOPAC Validation Assay (AID 720538); settings: ASA enzyme activity, LOPAC qHTS enhancer assay; activity change, positive = activation: at 57.5 µM (top of the series)
How it was run: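 Read-out: fluorescence at Ex=525/Em=598 nm after 1N NaOH final stop. Patient fibroblasts carrying ASA-I179S had 48h compound exposure, then 14h room-temperature pNCS hydrolysis (0.5mM final) in lysis buffer. Signal increase = enhanced activity.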

[2] = qHTS for compounds that reverse cellular toxicity of Amyloid beta (A-beta) peptide in yeast: LOPAC Validation Assay (AID 720559); settings: yeast expressing A-beta; at 46.1 µM (top of the series);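 note: plate controls were DMSO for no effect and equimolar ferric chloride plus clioquinol rescue for full effect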
How it was run: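 OD600 growth readout after 48 hr at 30 C; A-beta-toxic yeast plus pinned compounds in medium. Normalization: DMSO = negative, equimolar FeCl3 + clioquinol = positive.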

[3] = qHTS for Activators of Parkin Expression: LOPAC Validation Assay (NLuc Reporter) (AID 720572;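 note: 0% = DMSO and 100% = positive control compound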); settings: Parkin promoter NanoLuc reporter cells, luminescence, percent of positive control, DMSO as zero; at 46.1 µM (top of the series)
How it was run: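 Parkin promoter-driven FLuc/NLuc neuronal reporter cells; 24 h plating, 7-pt dose response, 24 h at 37 C/5% CO2; FLuc then NanoLuc reagent, 10 min each, luminescence; DMSO/positive control normalized.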

[4] = qHTS for Activators of Parkin Expression: LOPAC Validation Assay (FLuc Reporter) (AID 720573;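 note: 0% = DMSO and 100% = positive control compounds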); settings: Cell line, PRKN promoter firefly luciferase reporter, vehicle wells = 0, positive control = 100%; at 46.1 µM (top of the series)
How it was run: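 FLuc luminescence read-out from a neuronal line expressing a Parkin-promoter-driven coincidence reporter. Cells treated 24 h at 37 C, 5% CO2 with compounds at 7 concentrations; signal increase normalized to DMSO and positive control.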

[5] = biological target: T1, Hexokinase-4 (Homo sapiens) + Glucokinase regulatory protein (Homo sapiens) (UniProt P35557+Q14397); experiment: qHTS assay for inhibitors of recombinant human GCK-GKRP interaction: Diaphorase-coupled assay (AID 743205); settings: G6PDH/diaphorase resorufin fluorescence; at 57.5 µM (top of the series)
How it was run: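 Resorufin fluorescence (525/590 nm), read each minute over 30 min, reports GCK activity coupled via G6PDH and diaphorase. Reaction: 10 nM GST-GCK, 10 nM FLAG-GKRP, 5 mM glucose, 0.4 mM ATP, 0.15 mM NADP+, 0.1 mM resazurin.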

[6] = biological target: T1, Hexokinase-4 (Homo sapiens) + Glucokinase regulatory protein (Homo sapiens); experiment: qHTS assay for inhibitors of recombinant human GCK-GKRP interaction: ADP-Glo assay (AID 743206); settings: ADP-Glo luminescence, 60 min, 0% = vehicle-only wells with enzyme present; at 76.9 µM (top of the series);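 note: plate controls were DMSO plus enzyme for no effect and no enzyme for full effect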
How it was run: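 GST-GCK and FLAG-GKRP (15 nM each in the dispensed mix, with 2 uM S6P) react with 0.4 mM ATP and 5 mM glucose (final) in Hepes pH 7.6 for 60 min at room temperature. ADP is measured by ADP-Glo luminescence.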

[7] = biological target: T1, Hexokinase-4 (Homo sapiens) + Glucokinase regulatory protein (Homo sapiens); experiment: qHTS assay for inhibitors of recombinant human GCK-GKRP interaction: HTRF assay (AID 743207); settings: recombinant GCK-GKRP HTRF binding, 60 min, with sorbitol-6-phosphate; at 57.5 µM (top of the series);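 note: 0% = DMSO with GCK present and -100% = DMSO wells lacking GCK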
How it was run: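 HTRF read-out (ex 320 nm; 615/665 nm emission) after 60 min RT equilibration of 5 nM GST-GCK, 5 nM FLAG-GKRP, 2 uM S6P, compound and anti-FLAG/anti-GST detection antibodies; signal normalized between DMSO wells with and without GCK.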

[8] = qHTS Assay for Identifying Gametocytocidal Compounds (AID 743244);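 note: % is set by controls: 0 for no effect and ±100 for the full control effect; actives lower the fluorescent signal which means gametocytes are killed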; settings: P. falciparum 3D7 stage III-V gametocytes, alamarBlue, 72 h; max response: hits give low values
[9] = Natriuretic polypeptide receptor (hNpr1) antagonism - Pilot counterscreen GloSensor control cell line (AID 1347045; calls by dose curve; note: % is set by controls: 0 for no effect and ±100 for the full control effect); settings: GloSensor cAMP control cell line, luminescence counterscreen; at 38.3 µM (top of the series)
How it was run: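 HEK293 cGMP GloSensor cells preloaded 2 h with 2% GloSensor reagent, then compound 30 min before baseline luminescence read. Stimulated with 50 uM sodium nitroprusside, 20 min at room temperature, then read again; counterscreen for Npr1 antagonism.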

[10] = biological target: Atrial natriuretic peptide receptor 1 (Homo sapiens) (UniProt P16066); experiment: Natriuretic polypeptide receptor (hNpr1) antagonism - Pilot screen (AID 1347049; calls by dose curve;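 note: agonist-evoked cGMP luminescence read 20 min after hNppA addition; % is set by controls: 0 for no effect and ±100 for the full control effect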); settings: hNpr1 cells, antagonist mode cGMP read-out; at 57.5 µM (top of the series)
How it was run: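 Readout is cGMP-driven firefly luciferase luminescence in HEK293 cells carrying hNpr1 and a PDE5-domain GloSensor, read before and 20 min after 0.1 nM hNppA stimulation. Cells had 2% substrate reagent for 2 h and test compound for 30 min.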

[11] = biological target: Atrial natriuretic peptide receptor 2 (Homo sapiens) (UniProt P20594); experiment: Natriuretic polypeptide receptor (hNpr2) antagonism - Pilot subtype selectivity assay (AID 1347050; calls by dose curve; note: % is set by controls: 0 for no effect and ±100 for the full control effect); settings: NPR2-expressing cells, cGMP antagonist-mode read-out; at 38.3 µM (top of the series)
How it was run: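 Pilot selectivity screen against hNpr2: HEK293 cGMP-sensor cells are treated with LOPAC1280 compounds, then with hNppC peptide at 1 nM final. The cGMP-driven luminescence change over 20 min at room temperature is the read-out.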

[12] = biological target: Parathyroid hormone/parathyroid hormone-related peptide receptor (Homo sapiens) (UniProt Q03431); experiment: qHTS for PTHR1 Agonists: Optimization Screen against the NCGC LOPAC library (AID 1347079); settings: HEK293 GP2 PTHR1 GloSensor cAMP luminescence, 1 h; at 57.1 µM (top of the series);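 note: GloSensor cAMP luminescence in HEK-293 GP2 cells expressing human PTHR1 with IBMX; 0% is about no effect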
How it was run: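 Agonist readout: GloSensor cAMP luminescence, read after 15 min at room temperature. HEK-293-derived GP2 line carries PTHR1; compounds tested as a titration for 1 hr at 37C in presence of IBMX. M-PTH (1-15) served as control.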

[13] = biological target: Lysine-specific demethylase 5B (Homo sapiens) (UniProt Q9UGL1); experiment: Optimization screen for KDM5B Histone Demethylases FDH coupled qHTS against the LOPAC library (AID 1347166); settings: KDM5B demethylation, FDH-coupled NADH fluorescence; at 57.5 µM (top of the series); note: 0% is about no effect
How it was run: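 KDM5BDeltaAP (200nM final) preincubated 10 min with compound, then 12.5uM H3K4Me3, 25uM a-ketoglutarate, ascorbate, Fe(II), NAD+ and FDH added; 50mM HEPES pH 7.5, 0.01% Tween-20. NADH fluorescence (340/450 nm) change over 30 min, room temperature.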

[14] = Validation qHTS assay for inhibitors of Activation Induced Cytidine Deaminase (AID): UDG Counterscreen signal (AID 1347427); settings: biochemical UDG counterscreen, fluorescence signal; at 115 µM (top of the series); note: 0% is about no effect
How it was run: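 Counterscreen read of UDG activity (2 U/mL, 4/3x) in the FRET deamination format with AID (1 uM, 4/3x), DJC20/DJC23 substrates (250 nM, 4x), 4 h at room temperature. NaOH stop, fluorescence at 560 ex/665 em.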

[15] = biological target: Single-stranded DNA cytosine deaminase (Homo sapiens) (UniProt Q9GZX7); experiment: Validation qHTS assay for inhibitors of Activation Induced Cytidine Deaminase (AID): AID signal (AID 1347429); settings: Recombinant AID, FRET ssDNA deamination with UDG, fluorescence; at 115 µM (top of the series); note: % is set by controls: 0 for no effect and ±100 for the full control effect
How it was run: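 FRET deamination assay: 1 uM AID (4/3x stock) with UDG, compound up to 114 uM, then 250 nM DJC20/DJC23 substrate (4x stock) for 4 hr at room temperature. NaOH added, 30 min; fluorescence read 540/590 nm.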

[16] = Cell Viability qHTS for small molecule stabilizers of the endoplasmic reticulum resident proteome (AID 1508629); settings: cell viability counter-screen, 100 nM thapsigargin for final 4 h
[17] = Primary qHTS for small molecule stabilizers of the endoplasmic reticulum resident proteome: Secreted ER Calcium Modulated Protein (SERCaMP) assay (AID 1508630); settings: SH-SY5Y GLuc-SERCaMP (Gaussia luciferase released on ER calcium loss) secretion, thapsigargin, luminescence; at 38.4 µM (top of the series); note: % is set by controls: 0 for no effect and ±100 for the full control effect
How it was run: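 GLuc-SERCaMP-expressing SH-SY5Y cells, pretreated 16 h with compound, are challenged with thapsigargin to empty ER calcium stores; after 4 h, coelenterazine is added directly to the medium and luminescence is imaged.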

CN(CCCl)Cc1cc(Cl)c(NC2=NCCN2)c(Cl)c1
inactive: outcome [1] | growth rescue, positive = activation [2] 3.29% | activation [3] -6.14% | activation [4] -16.9% | activity change, positive = activation [5] -5.79% | activity, positive = activation [6] 1.96% | activity change, negative = inhibition [7] -9.09% | max response [8] 32.8% | activity change, negative = inhibition [9] 1.43% | activity change, negative = inhibition [10] 14.2% | activity change, negative = inhibition [11] -19.8% | activation [12] -12.6% | activity, negative = inhibition [13] -23.3% | activity, negative = inhibition [14] 16.2% | activity change, negative = inhibition [15] 24.6% | max response [16] 2.63% | activity change, negative = inhibition [17] 246%
